Earlier results on 1 compound are cited in paper PMC10819651 (Molecules, 2024).

The data set relates to MAO-B. The conditions noted are these: control of MAO-B inhibition; cited from earlier work.

With `C#CCN(C)[C@H](C)Cc1ccccc1` [Seligiline, selegiline], the “Inhibition Type (MAO-B)” value is “Inactivator [52]”.
